# Reference: PubChem BioAssay AID687014 (The Scripps Research Institute Molecular Screening Center, 2013)
# Only a part is listed here, and it is no random draw. Calls of active or inactive are those of the source.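 The calls were made as follows: active = activation above a cutoff set at the mean of all screened compounds plus 3 SD (cut at about 10% in these data); inactive = the rest.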
# System: Nuclear hormone receptor DAF-12 (Heterodera glycines), GAL4 fusion
# Assay: H. glycines DAF-12 receptor agonists, primary screen, cell-based, luminescence, HEK293, GAL4 fusion, UAS-luciferase (AID 687014);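 also: 0% = DMSO wells and 100% = sodium butyrate wells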
# Settings: HEK293 GAL4-hgDAF12 UAS-luciferase reporter, agonist luminescence; at 6.8 µM; hits give high values; normalized to butyrate control
row,SMILES,activation
1,CCC(=O)N(c1ccccc1)C1(COC)CCN(CCc2cccs2)CC1,inactive: 1.16%
2,CCC(=O)N(c1ccccc1)C1(COC)CCN(CCn2nnn(CC)c2=O)CC1,inactive: 1.36%
